# Earlier results, collected in patent publication US20200176101A1, “METHODS AND MEDICAL USES RELATING TO THE TREATMENT OF HYPOGLYCAEMIA” (Zealand Pharma A/S, priority 2017, published 2020).
# Values joined by “and” are separate entries in the source; they are usually repeats but may differ in a detail not shown here. Equal values may be shown once.
substance,measurement,setting,value
insulin aspart,tmax (time from dose to maximum serum concentration),"mean, SC insulin, one row per patient 1-8",67.9 min and 48.5 min and 46.5 min and 68.5 min and 55.4 min and 57.6 min and 57.3 min and 40.8 min
same,"CIF, I (apparent insulin clearance)","mean, one row per patient 1-8",17.4 mL/min/kg and 17.3 mL/min/kg and 24.6 mL/min/kg and 23.7 mL/min/kg and 26.8 mL/min/kg and 18.9 mL/min/kg and 18.5 mL/min/kg and 14.8 mL/min/kg
same,Ib (steady state insulin concentration),"range of means, one row per patient 1-8, type 1 diabetes",7.8-9.4 mU/l and 5.2-8.2 mU/l and 3.0-8.5 mU/l and 16.8-22.6 mU/l and 4.7-9.1 mU/l and 6.6-7.8 mU/l and 10.0-11.2 mU/l and 10.3-13.4 mU/l
